Data taken from article PMC2650276 (Neuron, 2009).

By UniProt entry, the sequences of proteins in these tests, tags left out. Residues count along the entry.
UniProt P11275, 91-272: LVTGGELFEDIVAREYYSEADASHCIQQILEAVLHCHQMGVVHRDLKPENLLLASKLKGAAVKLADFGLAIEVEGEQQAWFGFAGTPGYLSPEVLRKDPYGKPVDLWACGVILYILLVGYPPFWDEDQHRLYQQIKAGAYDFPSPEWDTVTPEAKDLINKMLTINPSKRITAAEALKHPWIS

Target: GST-CaMKIIαCD (L91-S272) (rat, UniProt P11275 91-272)
Test: pull-down

binding result: binds
B1: D3RIL3 (R210-Q375), released from GST by thrombin (domain or fragment, rat, UniProt P19020 210-375, looked up)
chain: RIYIVLRQRQRKRILTRQNSQCISIRPGFPQQSSCLRLHPIRQFSIRARFLSDATGQMEHIEDKQYPQKCQDPLLSHLQPPSPGQTHGGLKRYYSICQDTALRHPSLEGGAGMSPVERTRNSLSPTMAPKLSLEVRKLSNGRLSTSLRLGPLQPRGVPLREKKATQ
